Experimental data from patent US10501436B2, “Compounds and methods of use” (Medivation Technologies LLC, priority 2014, dated 2019).

Test system: p-SMAD2
Assay: p-SMAD2 inhibition, Western Blot Analysis in MDA-MB-231 cells treated with TGFβ
Assay type: cell-based
Settings: TGFβ 2 ng/mL, samples run in triplicate; for inhibition at 0.1 µM / inhibition at 0.5 µM: Homo sapiens; for inhibition at 0.1 µM / Average p-SMAD2 inhibition @ 0.1 μM (% Inh): 0.1 μM compound; for inhibition at 0.1 µM: read-out: Average p-SMAD2 inhibition @ 0.1 μM (% Inh); for inhibition at 0.5 µM / Average p-SMAD2 inhibition @ 0.5 μM (% Inh): 0.5 μM compound; for inhibition at 0.5 µM: read-out: Average p-SMAD2 inhibition @ 0.5 μM (% Inh)

Row | Compound | inhibition at 0.1 µM | inhibition at 0.5 µM | Average p-SMAD2 inhibition @ 0.1 μM (% Inh) | Average p-SMAD2 inhibition @ 0.5 μM (% Inh)
1 | C=C(C)c1cnc(-c2cc(Cl)ccc2F)cc1Nc1ncncc1C(=O)NC[C@H](C)O [Compound 4a, (S)-4-(2-(5-chloro-2-fluorophenyl)-5-(prop-1-en-2-yl)pyridin-4-ylamino)-N-(2-hydroxypropyl)pyrimidine-5-carboxamide] | 72.7% | 99.7% |  | 
2 | COC(C)(C)c1cnc(-c2cc(Cl)ccc2F)cc1Nc1ccncc1C(=O)NCC(C)O (single isomer, unassigned) [Compound 17a, 4-[[2-(5-chloro-2-fluoro-phenyl)-5-(1-methoxy-1-methyl-ethyl)-4-pyridyl]amino]-N-(2-hydroxypropyl)pyridine-3-carboxamide] | 25.3% | 81.7% |  | 
3 | CC(O)CNC(=O)c1cncnc1Nc1cc(-c2cc(Cl)ccc2F)ncc1C(C)C (single isomer, unassigned) [Compound 12a] |  |  | 64.33 % Inh | 93.00 % Inh
4 | CC(C)c1cnc(-c2cc(Cl)ccc2F)cc1Nc1ccncc1C(=O)N[C@@H](C)CO [Compound 6a, (S)-4-(2-(5-chloro-2-fluorophenyl)-5-isopropylpyridin-4-ylamino)-N-(1-hydroxypropan-2-yl)nicotinamide] | 53.7% | 98.3% |  | 
5 | COc1cnc(-c2cc(Cl)ccc2F)cc1Nc1ccncc1C(=O)NCC(C)O (single isomer, unassigned) [Compound 13a] |  |  | 59.00 % Inh | 93.67 % Inh
6 | CC(O)CNC(=O)c1cnccc1Nc1cc(-c2cc(Cl)ccc2F)ncc1C(C)C (single isomer, unassigned) [Compound 2a] |  |  | 26.33 % Inh | 77.67 % Inh
7 | CCc1cnc(-c2cc(Cl)ccc2F)cc1Nc1ccncc1C(=O)NCC(C)O (single isomer, unassigned) [Compound 11a] |  |  | 44.67 % Inh | 96.00 % Inh
8 | C=C(C)c1cnc(-c2cc(Cl)ccc2F)cc1Nc1ccncc1C(=O)N[C@@H](CC)CO (single isomer, unassigned) [Compound 24a] | 17% | 68.3% |  | 
